US20100063074A1, “Cancer Treatment Method” (priority 2004, published 2010)

Tests used:
[1] = tested on: tumor cells overexpressing EGFR or erbB2; settings: Rusnak et al., 2001b; Xia et al., 2002; cited from earlier work
[2] = tested on: locally advanced or metastatic transitional cell carcinoma of the urothelial tract; settings: second-line oral treatment

Compound	selectivity for tumor cells overexpressing EGFR or erbB2 [1]	tolerability (in words) [2]
CS(=O)(=O)CCNCc1ccc(-c2ccc3ncnc(Nc4ccc(OCc5cccc(F)c5)c(Cl)c4)c3c2)o1 [GW572016, N-{3-chloro-4-[(3-fluorobenzyl)oxy]phenyl}-6-[5-({[2-(methanesulphonyl)ethyl]amino}methyl)-2-furyl]-4-quinazolinamine]	selectively inhibits tumor cells overexpressing EGFR or erbB2	
CS(=O)(=O)CCNCc1ccc(-c2ccc3ncnc(Nc4ccc(OCc5cccc(F)c5)c(Cl)c4)c3c2)o1.Cc1ccc(S(=O)(=O)O)cc1 [GW572016F, N-{3-Chloro-4-[(3-fluorobenzyl)oxy]phenyl}-6-[5-({[2-(methanesulphonyl)ethyl]amino}methyl)-2-furyl]-4-quinazolinamine ditosylate monohydrate]		generally well tolerated
